# Source: US20130324503A1, “Method of identifying and treating a person having a predisposition to or afflicted with Parkinson disease” (Health Research Inc., priority 2010, published 2013)
# System: D. melanogaster w^1118 females
# Conditions: in vivo
smiles,measurement,value
"CN1CCC[C@H]1c1cccnc1 [nicotine, 1-methyl-2-(3-pyridyl)pyrrolidone]",decline in median survival,21%
